The results in this text go back to BindingDB's records for patent US9694016 (Novartis AG, 2017).

Chains of the proteins cited; added tags and fusions are not shown.
UniProt P04049, whole entry Y340E/Y341E: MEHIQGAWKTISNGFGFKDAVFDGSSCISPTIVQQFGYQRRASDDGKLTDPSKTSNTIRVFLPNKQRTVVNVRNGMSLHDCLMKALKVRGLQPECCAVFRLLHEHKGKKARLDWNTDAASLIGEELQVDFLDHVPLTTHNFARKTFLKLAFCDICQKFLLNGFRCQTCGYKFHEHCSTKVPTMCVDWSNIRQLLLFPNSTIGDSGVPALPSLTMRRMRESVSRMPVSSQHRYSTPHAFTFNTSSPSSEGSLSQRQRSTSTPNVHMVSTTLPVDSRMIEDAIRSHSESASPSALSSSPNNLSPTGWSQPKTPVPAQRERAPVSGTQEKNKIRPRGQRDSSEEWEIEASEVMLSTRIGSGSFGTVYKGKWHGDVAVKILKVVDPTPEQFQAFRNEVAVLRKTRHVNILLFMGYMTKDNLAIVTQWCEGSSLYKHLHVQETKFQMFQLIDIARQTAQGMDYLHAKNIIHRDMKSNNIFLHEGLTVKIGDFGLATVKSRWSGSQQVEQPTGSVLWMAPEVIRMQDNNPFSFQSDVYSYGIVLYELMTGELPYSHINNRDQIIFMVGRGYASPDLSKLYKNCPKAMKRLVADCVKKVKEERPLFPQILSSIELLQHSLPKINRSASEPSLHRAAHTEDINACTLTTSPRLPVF

In this experiment the target is RAF proto-oncogene serine/threonine-protein kinase [Y340E,Y341E] (Human, UniProt P04049, Y340E/Y341E). Briefly: Raf Activity Assay. The conditions noted are these: pH 7.5; 25 °C.

As usually defined, the IC50 is the concentration that gives 50% inhibition. Read a low IC50 as greater potency. `Cc1ccc(NC(=O)c2cccc(C(F)(F)F)c2)cc1-c1cc(N)nc(N2CCOCC2)c1` [US9694016, 93] gave an IC50 of 300 pM. That is a sub-nanomolar value.
